Assays:
Type in all cases: functional
[1] = system: Klebsiella pneumoniae; experiment: Antimicrobial activity against blaKPC-positive Klebsiella pneumoniae S4 by broth microdilution method
[2] = system: Klebsiella pneumoniae; experiment: Antimicrobial activity against blaKPC-positive Klebsiella pneumoniae S11 by broth microdilution method
[3] = system: Klebsiella pneumoniae; experiment: Antimicrobial activity against blaKPC-positive Klebsiella pneumoniae S1 by broth microdilution method

Measured: MIC

GENTAMICIN
0.5 µg/mL: [1] | [2] | [3]
